Measurements: PMC10331583, “Control of fibrosis with enhanced safety via asymmetric inhibition of prolyl‐tRNA synthetase 1” (EMBO Molecular Medicine, 2023)

Legend:
[1] = tested on: PARS1 heterodimer (WT/MT; MT, PARS1 FA/EA/RL)
[2] = WT/WT, ATP as varied substrate, average of 3 experiments
[3] = PARS1: WT/MT, mean of experiments
[4] = PARS1: WT/WT, mean of experiments

Km (PARS1 homodimer (WT/WT); [2]) [µM]	Km [1, 3] [µM]	Km (PARS1 homodimer (WT/WT); [4]) [µM]	Compound	Vmax (PARS1 homodimer (WT/WT); [2]) [µM/s]	kcat (PARS1 homodimer (WT/WT); [2]) [s⁻¹]	kcat [1, 3] [s⁻¹]	Vmax ([1]; WT/MT, Average of 4 experiments) [µM/s]	kcat (PARS1 homodimer (WT/WT); [4]) [s⁻¹]	Vmax (PARS1 homodimer (WT/WT); WT/WT, Average of 4 experiments) [µM/s]
371			Nc1ncnc2c1ncn2[C@@H]1O[C@H](COP(=O)(O)OP(=O)(O)OP(=O)(O)O)[C@@H](O)[C@H]1O [ATP]	0.000459	0.0153				
	53.1	31.1	O=C(O)[C@@H]1CCCN1 [Proline, proline]			0.0217	0.000651	0.0278	0.000835

Where two headings read alike, the source gives them in different places.
